US9242973B2, “Chromane compounds” (CoMentis, Inc., priority 2012, dated 2016)

Protein sequences, listed by entry. Tags and fused reporters are not part of them. Residues count along the entry.
UniProt P56817, 75-416: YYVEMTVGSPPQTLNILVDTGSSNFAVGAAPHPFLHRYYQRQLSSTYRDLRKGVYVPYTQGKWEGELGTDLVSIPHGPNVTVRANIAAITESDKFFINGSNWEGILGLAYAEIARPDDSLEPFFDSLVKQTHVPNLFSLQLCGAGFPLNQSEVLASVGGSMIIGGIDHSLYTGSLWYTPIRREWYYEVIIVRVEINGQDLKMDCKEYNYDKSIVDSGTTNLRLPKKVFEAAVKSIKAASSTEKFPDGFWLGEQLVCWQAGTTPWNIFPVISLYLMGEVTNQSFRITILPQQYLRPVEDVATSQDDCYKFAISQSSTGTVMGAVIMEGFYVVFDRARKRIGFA

Assays:
[1] = system: Aβ production in SK-N-BE(2) neuroblastoma cells; assay: Test Example 3: Aβ production inhibition in cell (Aβ40 ELISA, SK-N-BE(2)); details: Homo sapiens, SKNBE2, 6 h, read-out: Test Example 3 IC50
BACE1 = BACE1 (Homo sapiens (Human), UniProt P56817); assay: Test Example 1: BACE1 inhibition by FRET (MCA substrate); IC50 and Ki; details: read-out: Test Example 1 IC50, MCA substrate 3 μM, BACE1 65 nM, pH 4.4

How did the IC50 [1] turn out when `Cc1cc(Cl)cnc1C(=O)Nc1ccc2c(c1)C1(COC(N)=N1)C1(COC1)C(C)(C)O2` (centres unmarked) [Example 195] was run?
The IC50 was 3.2 nM.

Which IC50 (BACE1) does the source give for `NC1=NC2(CO1)c1cc(NC(=O)c3ncc(Cl)cc3F)ccc1OCC21CC1` (centres unmarked) [RP 29] here?
Its IC50 is 276 nM.
